Earlier results in patent publication US5298499A, “S-2-(substituted ethylamino)ethyl phosphorothioates” (Research Triangle Institute, priority 1991, dated 1994).
Like-named read-outs stand apart in the source and are kept apart here.

Key:
[1] = compared with compound 1 (dose levels)
mice = settings: 10 GY, taken from T. R. Sweeney

## NC(=O)CCNCCSP(=O)(O)O
[1]
  toxicity: more toxic compound
mice; 25 mg/kg
  30-Day Survival: 0%
mice; 50 mg/kg
  30-Day Survival: 0%
